The target of assay [1] is cation-independent mannose-6-phosphate receptor (CIMPR). Put plainly: CIMPR affinity chromatography of different production batches.
Assay [2] shares this target. Put plainly: M6P receptor (CIMPR) plate binding assay.
For assay [3] the target is unchanged. As to the kind of experiment: CIMPR affinity chromatography, M6P gradient elution, fractions by GAA activity.

In general, Kd refers to the constant that tells how readily two partners part at equilibrium. Lower therefore signals higher affinity.

The substance “ATB200 rhGAA (recombinant human acid α-glucosidase produced in CHO cell line GA-ATB-200) (from UniProt P10253 70-952) (enzyme)” showed a CIMPR receptor binding (%) in assay [1] of 70%. Further, in assay [2], the Kd lay in the range of 2 to 4 nM.

On to “Myozyme® (alglucosidase alfa, conventional rhGAA) (from UniProt P10253 57-952) (enzyme)”, for which, in assay [3], the % of rhGAA bound to CIMPR column (eluted with M6P) was determined as 27% and the % of rhGAA that did not bind to the CIMPR worked out at 73%.

With “Lumizyme® (alglucosidase alfa, conventional rhGAA) (from UniProt P10253 57-952) (enzyme)”, in assay [3], the % of rhGAA bound to CIMPR column (eluted with M6P) was 22% and the % of rhGAA that did not bind to the CIMPR turned out to be 78%.

Source of the values: US20170335301A1.
